The list shows a part of the results, in another mix than the full data. Calls of active or inactive are those of the source. Calls follow the shape of the dose curve; as a rule, active = well fitted activation curve with a large enough effect; inconclusive = small, poorly fitted or top-dose-only effect; inactive = flat fitted curve, though single readings scatter.

The chains behind the UniProt entries cited, without tags or fusion partners.
UniProt P07550, whole entry: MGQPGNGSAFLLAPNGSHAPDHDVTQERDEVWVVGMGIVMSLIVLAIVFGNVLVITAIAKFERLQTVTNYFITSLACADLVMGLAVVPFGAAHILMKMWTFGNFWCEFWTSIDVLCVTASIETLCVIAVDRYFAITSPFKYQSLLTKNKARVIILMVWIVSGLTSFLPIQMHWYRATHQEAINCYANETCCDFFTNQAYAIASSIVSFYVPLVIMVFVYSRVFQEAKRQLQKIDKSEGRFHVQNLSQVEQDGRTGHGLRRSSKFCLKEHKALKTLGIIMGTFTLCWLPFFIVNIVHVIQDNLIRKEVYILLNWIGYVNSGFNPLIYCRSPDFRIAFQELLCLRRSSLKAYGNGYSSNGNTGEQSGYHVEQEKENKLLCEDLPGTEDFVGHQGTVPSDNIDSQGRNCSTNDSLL

This note sets out measurements from PubChem BioAssay AID492947 (National Center for Advancing Translational Sciences (NCATS), 2010).

In this experiment the target is Beta-2 adrenergic receptor (Homo sapiens) (UniProt P07550). In words: qHTS assay of beta-arrestin-biased ligands of beta2-adrenergic receptor.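 Also: 0% = DMSO controls and full agonism = EC100 isoproterenol or metaproterenol; nearly all actives have a fitted effect of over 65% in size.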 Conditions: beta-arrestin recruitment to beta2AR, cell-based reporter; at 46.1 µM (top of the series). An excerpt:
NIH Molecular Libraries Probe Production Network [MLPCN]
NIH Chemical Genomics Center [NCGC]
PI: Bryan Roth and Bob Lefkowitz
The concept of biased agonism is an emerging concept of molecular pharmacology which proposes that seven transmembrane receptors (7TMRs) or G protein-coupled receptors (GPCRs), exist in multiple signaling conformations and complexes and that ligands (either agonists or antagonists) can induce signaling biased responses for distinct signal transduction cascades.
Furthermore, accumulating evidence over the last decade has drawn attention to a novel function of beta-arrestins as signal transducers that scaffold various signaling molecules upon activation of 7TMRs. […]
Tango cells were dispensed into white, solid, tissue-culture-treated 1536-well plates at 1500 cells/well in DMEM, containing 1% fetal bovine serum (FBS). […] Plates were then incubated for 15 minutes at room temperature, and subsequently measured on a ViewLux plate reader for luminescent signal using a clear filter with a 10 second exposure and 2x binning. The %Activity was determined from the corrected luminescence values.
Concentration-response curves were fitted to the signals arising from the resulting luminescence. […]
Keywords: biased agonism, beta2-AR, beta-arrestin, GPCR, 7TMR, Tango, luminescence, MLSMR, MLPCN, NIH Roadmap, qHTS, NCGC
Background: qHTS replaces the single test concentration by a dilution series.
For the molecule `CCC(=O)N(c1ccccc1)C1(COC)CCN(CCc2cccs2)CC1`, the activation was inactive: 10.8%. The figure for `CCC(=O)N(c1ccccc1)C1(COC)CCN(CCn2nnn(CC)c2=O)CC1` is inactive: -0.903%.
